Assay: log Conditional Stability Constant at pH 10 with Ca
Assay type: physicochemical

diethylenetriaminepentaacetate [DTPA]
log Conditional Stability Constant (pH 10) Ca: 10.13

From patent publication US20070118999A1, “Compositions suitable for the treatment of hair comprising chelants and methods for reducing oxidative hair damage” (The Procter & Gamble Company, priority 2001, published 2007)
